Data from US11319366B2, “Antibody facilitating programmed necrosis of cells and application thereof” (SHANGHAI JW INFLINHIX CO., LTD., priority 2015, dated 2022).

System: L929 cells
Assay: Apoptosis and necrosis assay (live/dead staining, active caspase-3, flow cytometry) in L929 cells
Type: cell-based, mouse
Settings: TNF alone or antibody added with TNF
Description: Cells were incubated overnight (or for times as indicated in the figures) in the presence of TNF[…] (Immunotools, Friesoythe, Germany) or TNF peptides with or without 20 μM z-VAD-FMK (R & D Systems, Minneapolis, Minn.) or 20 μM Necrotatin-1 (PeproTech, Rocky Hill, N.J.). In some experiments, TNF[…] and □ cells were co-cultured with monoclonal antibodies or synovial fluids at the indicated concentration. The cells were stained with live/dead cell staining kits (Invitrogen, Paisley, UK) instructed by the manufacturer's manual and fixed using cytofix/cytoperm fixation/permeabilization solution kits (BD Pharmingen, Oxford, UK). This was followed by intracellular staining with FITC-conjugated anti-caspase-3 antibody (Cell Signaling Technology, Danvers, Mass., USA). Cells were acquired on a CyAn flow cytometer (Beckman Coulter, Fullerton, Calif.) and data were analyzed using Flowjo (Tree Star Inc. Ashland, Oreg.).

TNF: cytokine purchased from Immunotools, used as stimulus [reference compound]
cell fate (apoptosis / survival / necrosis) of L929 cells: induced cell apoptosis
